Consider 1 molecule from patent US20230145835A1, “Modulators of Alpha-4-beta-7 Integrin and MAdCAM” (48HD Biopharma Inc., priority 2021, published 2023).

The target of this experiment is T1, rh-integrin α4β7/LPAM-1 (Homo sapiens, UniProt P13612+P26010).
T1 sequence (P13612 34-977 limits assumed): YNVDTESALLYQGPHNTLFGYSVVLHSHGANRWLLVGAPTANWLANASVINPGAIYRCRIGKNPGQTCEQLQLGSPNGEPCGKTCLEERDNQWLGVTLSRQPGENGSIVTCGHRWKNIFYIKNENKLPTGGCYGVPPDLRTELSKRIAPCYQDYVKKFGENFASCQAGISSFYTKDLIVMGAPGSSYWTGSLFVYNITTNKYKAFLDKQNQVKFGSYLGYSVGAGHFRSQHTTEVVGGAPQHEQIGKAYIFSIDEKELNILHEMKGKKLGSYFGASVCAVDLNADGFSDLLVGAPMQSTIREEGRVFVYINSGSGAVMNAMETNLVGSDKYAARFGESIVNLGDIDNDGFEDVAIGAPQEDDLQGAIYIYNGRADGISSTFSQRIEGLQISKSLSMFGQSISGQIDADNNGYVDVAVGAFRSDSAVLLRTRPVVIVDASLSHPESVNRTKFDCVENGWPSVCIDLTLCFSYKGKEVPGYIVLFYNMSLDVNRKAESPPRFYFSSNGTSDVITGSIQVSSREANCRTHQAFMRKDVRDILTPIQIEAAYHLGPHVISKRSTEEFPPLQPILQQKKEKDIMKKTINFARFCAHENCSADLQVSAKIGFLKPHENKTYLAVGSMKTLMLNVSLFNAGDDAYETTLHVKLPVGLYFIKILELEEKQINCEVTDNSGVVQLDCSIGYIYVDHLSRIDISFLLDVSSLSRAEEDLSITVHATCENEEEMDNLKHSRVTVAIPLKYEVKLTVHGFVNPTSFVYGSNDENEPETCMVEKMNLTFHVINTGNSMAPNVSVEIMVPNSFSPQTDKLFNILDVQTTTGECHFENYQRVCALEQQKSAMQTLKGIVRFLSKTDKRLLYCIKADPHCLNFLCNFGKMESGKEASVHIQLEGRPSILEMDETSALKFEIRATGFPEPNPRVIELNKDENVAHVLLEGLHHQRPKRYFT
T1 sequence (P26010 20-723 limits assumed): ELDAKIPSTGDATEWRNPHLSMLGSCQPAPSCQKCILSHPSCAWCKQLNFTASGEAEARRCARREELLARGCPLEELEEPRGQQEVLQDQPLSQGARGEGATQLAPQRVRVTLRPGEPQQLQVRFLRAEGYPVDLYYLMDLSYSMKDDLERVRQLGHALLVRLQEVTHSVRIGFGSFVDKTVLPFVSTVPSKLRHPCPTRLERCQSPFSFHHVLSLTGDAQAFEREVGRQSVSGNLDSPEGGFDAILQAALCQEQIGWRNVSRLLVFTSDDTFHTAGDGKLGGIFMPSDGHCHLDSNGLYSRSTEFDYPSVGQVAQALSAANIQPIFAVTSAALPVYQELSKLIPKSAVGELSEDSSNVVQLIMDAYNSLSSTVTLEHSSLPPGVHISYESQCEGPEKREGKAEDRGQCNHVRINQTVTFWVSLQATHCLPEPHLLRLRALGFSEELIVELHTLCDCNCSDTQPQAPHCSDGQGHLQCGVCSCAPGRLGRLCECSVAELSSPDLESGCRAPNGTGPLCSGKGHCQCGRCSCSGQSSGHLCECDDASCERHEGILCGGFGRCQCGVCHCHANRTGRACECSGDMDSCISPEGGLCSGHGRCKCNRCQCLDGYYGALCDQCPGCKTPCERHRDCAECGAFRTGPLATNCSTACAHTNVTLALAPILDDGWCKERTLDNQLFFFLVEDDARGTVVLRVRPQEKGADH
Description: α4β7-MadCAM Competition ELISA (Example 4). The settings on record: 4 μg/mL α4β7 coated, MAdCAM and peptide mixture, 28° C. The experiment is classed as binding. On the procedure:
After washing with wash buffer, 200 μL assay buffer was added to each well and incubated for one hour at 28° C. After another wash with wash buffer, 100 μL of a MAdCAM and peptide mixture in assay buffer was added to each well and incubated for one hour at 28° C., followed by washing with wash buffer.
A general note: In an ELISA, binding on a coated surface is turned into a signal by an enzyme label.

What is called IC50 is the midpoint of a concentration-inhibition curve. In the case of `CC(C)C[C@@H]1NC(=O)[C@@H]2CCCN2C(=O)[C@@H]2CSCc3cc(cc(c3)OCCCCCCO/N=C/C(=O)N[C@@H](CCCCN)C(=O)N2)CSC[C@@H](C(N)=O)NC(=O)[C@H](C)NC(=O)[C@@H]2CCCN2C(=O)[C@H](C(C)C)NC(=O)[C@H](CC(=O)O)NC1=O` [SEQ ID NO: 59], the IC50 stood at 1920 nM.
